The target in test [1] is T1, RecG DNA helicase, wildtype (E. coli, UniProt P24230 1-693).
T1 construct: RecG DNA helicase, E. coli, expressed from overexpression plasmid pEAW111; No tag is mentioned; also called WT RecG; source: E. coli STL2669/pT7pol26 with pEAW111, purified (ammonium sulfate, DEAE, Source 15Q, Source 15S)
T1 sequence (looked up): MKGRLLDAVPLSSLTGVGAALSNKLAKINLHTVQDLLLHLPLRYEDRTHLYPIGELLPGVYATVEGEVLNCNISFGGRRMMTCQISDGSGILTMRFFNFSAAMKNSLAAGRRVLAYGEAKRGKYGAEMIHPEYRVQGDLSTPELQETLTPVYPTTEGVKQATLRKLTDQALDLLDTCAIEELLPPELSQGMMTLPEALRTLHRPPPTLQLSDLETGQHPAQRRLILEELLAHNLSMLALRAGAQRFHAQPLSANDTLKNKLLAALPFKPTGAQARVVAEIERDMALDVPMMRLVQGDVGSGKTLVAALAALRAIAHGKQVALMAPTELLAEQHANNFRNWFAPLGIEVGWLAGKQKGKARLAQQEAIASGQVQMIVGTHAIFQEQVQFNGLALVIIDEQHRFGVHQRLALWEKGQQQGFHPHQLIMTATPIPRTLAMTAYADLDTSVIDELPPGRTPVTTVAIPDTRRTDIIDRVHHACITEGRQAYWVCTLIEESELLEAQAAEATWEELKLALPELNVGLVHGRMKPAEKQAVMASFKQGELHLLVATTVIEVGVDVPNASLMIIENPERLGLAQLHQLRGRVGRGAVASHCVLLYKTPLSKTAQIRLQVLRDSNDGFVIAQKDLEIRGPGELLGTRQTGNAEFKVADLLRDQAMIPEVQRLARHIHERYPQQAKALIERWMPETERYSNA
The experiment in a line: ITC; SSB proteins or unlabeled peptides injected into RecG in the cell; 20 mM Tris-HCl pH 8.0, 150 mM NaCl, 10% glycerol, 1 mM EDTA, 1 mM β-mercaptoethanol; 25°C; one-site model; concentrations as monomers. Particulars: both partners purified. In general terms: Isothermal titration calorimetry measures the heat released or taken up as one component is titrated into another.

In test [2] the target is T2, RecG R95A (E. coli, UniProt P24230 1-693, R95A).
T2 construct: RecG DNA helicase, E. coli, R95A introduced into pEAW111 to give pEAW1324; The preparation included a very weak nickase contaminant; source: E. coli STL2669/pT7pol26 with pEAW1324, purified (same scheme as wildtype RecG)
T2 sequence (looked up): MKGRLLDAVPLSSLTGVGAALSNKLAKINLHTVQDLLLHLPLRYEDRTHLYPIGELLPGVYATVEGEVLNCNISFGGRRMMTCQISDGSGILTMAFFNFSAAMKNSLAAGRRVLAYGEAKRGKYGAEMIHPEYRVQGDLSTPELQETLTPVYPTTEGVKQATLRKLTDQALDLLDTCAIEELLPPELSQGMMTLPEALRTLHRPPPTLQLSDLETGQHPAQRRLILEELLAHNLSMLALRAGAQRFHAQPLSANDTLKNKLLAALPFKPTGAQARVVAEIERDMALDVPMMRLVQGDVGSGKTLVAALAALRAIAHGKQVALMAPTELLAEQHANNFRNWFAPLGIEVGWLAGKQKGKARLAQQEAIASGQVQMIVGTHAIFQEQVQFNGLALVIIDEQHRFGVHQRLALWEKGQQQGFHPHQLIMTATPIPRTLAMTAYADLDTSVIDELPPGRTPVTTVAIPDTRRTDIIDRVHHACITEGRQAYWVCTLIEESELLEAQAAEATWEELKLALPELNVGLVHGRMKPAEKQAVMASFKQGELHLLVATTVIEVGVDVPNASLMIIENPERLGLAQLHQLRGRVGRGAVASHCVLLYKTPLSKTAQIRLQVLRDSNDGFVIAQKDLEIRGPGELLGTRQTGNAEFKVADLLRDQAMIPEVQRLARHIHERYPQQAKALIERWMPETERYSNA
Described as above. Particulars: both partners purified.

Here are results for 1 molecule from publication PMC10164576, “Interaction with the carboxy-terminal tip of SSB is critical for RecG function in E. coli” (Nucleic Acids Research, 2023).

B1: single-stranded DNA-binding protein (SSB), full-length wildtype (natural protein, E. coli, UniProt P0AGE0 1-178, looked up)
chain: MASRGVNKVILVGNLGQDPEVRYMPNGGAVANITLATSESWRDKATGEMKEQTEWHRVVLFGKLAEVASEYLRKGSQVYIEGQLRTRKWTDQSGQDRYTTEVVVNVGGTMQMLGGRQGGGAPAGGNIGGGQPQGGWGQPQQPQGGNQFSGGAQSRPQQSAPAAPSNEPPMDFDDDIPF
notes: all concentrations and the stoichiometry are per monomer; also called full-length SSB; WT SSB
With B1, in test [1], the Kd (commonly the free concentration of one partner at which half of the binding sites on the other are occupied at equilibrium, for simple one-to-one binding) turned out to be 2600 ± 400 nM; the dH is -3 ± 0.3 kcal/mol; the stoichiometry N (usually a count of units in the complex or per binding partner) was determined as 1.05 ± 0.07. In test [2], this molecule returned a Kd of 1700 ± 700 nM and a dH of -2.1 ± 0.3 kcal/mol.
